Tested on: HCC1954 breast ductal carcinoma cells
Assay: In vitro potency, cell viability (Cell Titer Glo 2.0), HCC1954
Format: cell-based
Conditions: HCC1954, 120 hours
Protocol: HCC1954 breast ductal carcinoma or SK-BR-3 cells (ATCC, Manassas, VA, USA) were seeded into 384-well white-walled culture plates and allowed to adhere for 2-4 hours. Cells were then treated with test articles at least in duplicate by addition of 5-fold serially diluted test articles prepared at 2× final concentration and incubated at 37° C. for 120 hours. Cell viability following treatment was determined by Cell Titer Glo 2.0 Assay (Promega, Madison, WI, USA) and normalized to non-treated controls. Dose-response relationships were analyzed using GraphPad Prism (La Jolla, CA, USA), and IC50 values were derived from non-linear regression analyses using a 4-parameter logistic equation.

Substance: Trastuzumab-23
- IC50: 60 pM

Substance: Trastuzumab-MC-VC-MMAE: Trastuzumab conjugated with MC-VC-PABC-MMAE Seagen drug-linker
- IC50: 40 pM
